Molecular target: human BCL6 BTB domain (Homo sapiens, UniProt P41182)

Structure (SMILES): Cn1c(=O)c2c(c3cc(Nc4ccnc(Cl)c4C#N)ccc31)N[C@@H](C1CC1)CCO2 [Compound 12a, (R)-2-Chloro-4-((2-cyclopropyl-7-methyl-6-oxo-1,2,3,4,6,7-hexahydro-[1,4]oxazepino[2,3-c]quinolin-10-yl)amino)nicotinonitrile]
- BCL6 TR-FRET mean pIC50 (mean of replicates): 7.41
- IC50 (read-out: BCL6 TR-FRET IC50, geometric mean of replicates): 39 nM
